We go through eleven molecules from PubChem BioAssay AID1956 (SRMLSC, 2009).

The entries are a selection whose mix differs from that of the whole data set. Some results for these compounds are left out of this collection, so the calls shown say nothing about other tests. Activity calls are given as the source filed them. No stated cut-off is given here; in the data, active means maximum fold increase above about 1.5; inconclusive means no clear call, values can overlap the other calls; inactive means below that; tested in PC3 cells.

The nature of the assay: enhancers of HSV replication in host cells, fold increase, host cell viability (AID 1956). The settings on record: HSV replication augmentation in cells; at 0.781 µM, hits give high values.
As to `COc1cccc(C(=O)NCC2(N3CCCCC3)CCCCC2)c1`, the maximum fold increase entry is “inactive”. Regarding `COc1ccc(Br)c(C(=O)NCC2(N3CCCCC3)CCCCC2)c1`, the maximum fold increase entry was “inactive”. The value for `CN(C)c1cccc(C(=O)NCC2(N(C)C)CCCCC2)c1` was “inactive”; that for `O=C(OC1CN2CCC1CC2)C(CO)(c1ccccc1)c1ccccc1` (stereo unspecified) was “inactive”; that for `CC(C)N1C(=O)CC2(CCN(CCOC(=O)C(O)(c3ccccc3)c3ccccc3)CC2)C1=O` was “inactive”. The value for `CCN(CC)CC(C)C(C)OC(=O)C(O)(c1ccccc1)c1ccccc1` (stereo unspecified) was “inactive”. On to `O=C(NCC1(N2CCCCC2)CCCCC1)c1cc([N+](=O)[O-])ccc1Cl`, for which the maximum fold increase was inactive: 1.02. The value for `C=CCN1CCN(CCOC(=O)C(O)(c2ccccc2)c2ccccc2)CC1` was “inactive”. Next, `CCN1CCCC(OC(=O)C2(O)c3ccccc3C=Cc3ccccc32)C1` (stereo unspecified): “inactive”. The value for `Cc1ccccc1C(=O)NCC1(N2CCCCC2)CCCCC1` was “inactive”; that for `CN(C)C1CCCC1OC(=O)C(O)(c1ccccc1)c1ccccc1` (stereo unspecified) was “inactive”.
